This note sets out measurements from ChEMBL document CHEMBL4130501, “Nature-based molecules combined with rivastigmine: A symbiotic approach for the synthesis of new agents against Alzheimer's disease” (Eur J Med Chem, 2017).

Chains of the proteins cited; added tags and fusions are not shown.
UniProt P06276, whole entry: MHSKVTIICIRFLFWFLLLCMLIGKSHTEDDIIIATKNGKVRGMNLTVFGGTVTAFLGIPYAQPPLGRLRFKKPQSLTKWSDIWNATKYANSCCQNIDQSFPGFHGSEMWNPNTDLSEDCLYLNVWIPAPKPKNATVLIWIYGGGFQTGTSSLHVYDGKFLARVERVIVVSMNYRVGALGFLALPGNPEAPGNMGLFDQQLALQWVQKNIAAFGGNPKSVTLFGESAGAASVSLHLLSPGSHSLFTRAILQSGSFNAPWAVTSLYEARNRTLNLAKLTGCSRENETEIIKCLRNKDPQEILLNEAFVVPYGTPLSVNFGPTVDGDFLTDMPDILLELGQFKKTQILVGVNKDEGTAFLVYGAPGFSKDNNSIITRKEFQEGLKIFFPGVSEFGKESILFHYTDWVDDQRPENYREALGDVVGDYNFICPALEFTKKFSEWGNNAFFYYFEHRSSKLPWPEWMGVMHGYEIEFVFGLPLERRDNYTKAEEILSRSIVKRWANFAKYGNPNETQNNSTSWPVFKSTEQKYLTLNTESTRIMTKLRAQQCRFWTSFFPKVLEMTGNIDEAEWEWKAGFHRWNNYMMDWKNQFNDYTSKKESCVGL

The IC50 is the concentration at which inhibition is half-maximal.

For this test, the target named is Cholinesterase (Homo sapiens, UniProt P06276). As to the kind of experiment: Inhibition of BuChE (unknown origin) pre-incubated for 20 mins before S-Butyrylthiocholine iodide substrate addition by Ellman reagent based spectrophotometry. A general note: In Ellman's method for cholinesterases, released thiocholine reacts with DTNB.

`CCN(C)C(=O)Oc1cccc([C@H](C)N(C)C)c1` [RIVASTIGMINE] yielded a half-inhibitory concentration (IC50) of 678 nM.
